Values of other authors, collected in publication PMC11220827 (Frontiers in Pharmacology, 2024).

Legend:
[1] = tested on: Estrogen pathway; design: method as in ToxCast; conditions: ref ToxCast; cited from earlier work
[2] = tested on: Androgen pathway; design: method as in ToxCast; conditions: ref ToxCast; cited from earlier work
Further: key: Pos = positive result; Neg = negative result; Inc = uncertain/inconclusive result.

## O=c1c(-c2ccc(O)cc2)coc2cc(O)cc(O)c12 [Genistein, 5,7-DIHYDROXY-3-(4-HYDROXYPHENYL)-4-BENZOPYRONE]
[1]
  Estrogen pathway: Receptor binding, Call: Pos
[2]
  Androgen pathway: Receptor binding, Call: Neg
